The labels stand for the following.
B1: S414 (peptide)
chain 1: ESFYDWFERQLGK
chain 2: ESFYDWFERQLGK
B2: S291 (peptide)
chain 1: GGGFHENFYDWFVRQVSKK
chain 2: GGGFHENFYDWFVRQVSKK
B3: S380 (peptide)
chain 1: EEDWLQRNANFYDWFVAEL
chain 2: EEDWLQRNANFYDWFVAEL
B4: S337 (peptide)
chain 1: GSLDESFYDWFERQLGKK
chain 2: GSLDESFYDWFERQLGKK
modifications: not fully specified

This test addresses mIR (human, UniProt P06213). In words: FP vs FITC-RP9.
Turning to SFYDWFERQLG [S391], the IC50 amounted to 284 nM.
The molecule B1 gave an IC50 of 151 nM.
Take GRVDWLQRNANFYDWFVAELG [S175]: the half-inhibitory concentration (IC50) came to 167 nM.
As for B2, half-maximal inhibition (IC50) was put at 668 nM. This IC50 is about 4-fold higher than that of the molecule before.
As for B3, inhibition was half-maximal at 27 nM (IC50).
B4 registered an IC50 of 111 nM.

(Values after US20090053807 (published 2009).)
